# Measured affinities in a library of Ab-91 heavy chain variants

Reference: Engelhart et al. 2022, doi:10.1038/s41597-022-01779-4. File: FLAb, binding data.

The target is the same throughout: PDVDLGDISGINAS, from the HR2 region of SARS-CoV-2 spike.

Each scFv is VL, a (GGGGS)3 linker, VH, as in the parent Ab-91, and differs from it in the CDRs of the heavy chain only.
VL: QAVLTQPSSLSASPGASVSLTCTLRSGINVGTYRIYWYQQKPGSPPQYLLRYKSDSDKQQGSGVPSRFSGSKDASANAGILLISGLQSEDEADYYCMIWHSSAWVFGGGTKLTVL
VH: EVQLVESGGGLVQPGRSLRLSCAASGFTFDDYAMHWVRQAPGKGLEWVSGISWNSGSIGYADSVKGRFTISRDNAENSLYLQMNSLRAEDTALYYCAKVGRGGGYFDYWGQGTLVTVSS

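Library AAYL51 holds single substitutions and randomly drawn double and triple substitutions in the CDRs. In AlphaSeq, yeast of one mating type display the scFv and yeast of the other type display the target. Pairs that bind mate more often; barcode pairs of the diploids are counted by sequencing. A regression on co-assayed BCL2-family reference pairs converts the normalised counts of each replicate to an apparent Kd. Mating was done three times.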

Variants are written as CDR1, CDR2 and CDR3 of the heavy chain (limits as in the source). Parent: GFTFDDYAMH, GISWNSGSIGYADSVK, VGRGGGYFDY. Every variant below is changed at V99 of the VH (sequential numbering). The Kd shown is the geometric mean over detected replicates; a lower Kd is a better binder. "no signal" means that the variant was in the library but no mating with the target was seen in any replicate; the authors take this as a sign of poor binding, and no number exists. Nonspecific signal, from three strains lacking the peptide, appeared in 21% of pairings of library AAYL51, centred on 34 µM (5% of these signals below 1.8 µM); values are not corrected for it. The control count says in how many pairings with the empty strains this scFv gave a signal.

* GFTFDDYAMH, GISWNSGSIGYADSVK, HGGGHGYFDY -> 59 µM (1 of 3 replicates; controls 5 of 9)
* GFTFDDYAMH, GISWNSGSIGYADSVE, FGRGEGYFDY -> no signal (0 of 3 replicates; controls 2 of 9)
* GFTFDDYAMV, GISWNSSSIGYADSVK, KGRGGGYFDY -> 100 µM (3 of 3 replicates; controls 6 of 9)
* RFTFDDYAMH, GISWNSGSIGYADSFK, YGRGGGYFDY -> no signal (0 of 3 replicates; controls 0 of 9)
* GVTFDDYAMH, GIWWNSGSIGYADSVK, FGRGGGYFDY -> no signal (0 of 3 replicates; controls 1 of 9)
* GFTFDDYAMH, GISWNSGSIGYADSVK, QGRGGDYFDY -> 15 µM (1 of 3 replicates; controls 4 of 9)
* IFTFDDYAMH, GISWNSGSIGYADSVK, WGRGGGPFDY -> no signal (0 of 3 replicates; controls 3 of 9)
* GFTFDDYAMH, GISINSGSEGYADSVK, MGRGGGYFDY -> no signal (0 of 3 replicates; controls 0 of 9)
* GFTFDDYAMH, GISWNSGSIGYADSVK, EGRGGVYFKY -> 38 µM (3 of 3 replicates; controls 4 of 9)
* GFTFDDYAMH, GISWNSGSIGYADEVK, TGRGGGYFDY -> 3.0 µM (1 of 3 replicates; controls 0 of 9)
* GFTFGDYAMH, GISWNSGSIGYADCVK, AGRGGGYFDY -> 16 µM (1 of 3 replicates; controls 5 of 9)
* GFTFDDYAMH, GISWNSGSIGYADSVK, TGRRGHYFDY -> 58 µM (1 of 3 replicates; controls 3 of 9)
* GFTFDLYAMH, GISWNSGSIGYADSVK, KGRRGGYFDY -> no signal (0 of 3 replicates; controls 2 of 9)
* GFWFDDPAMH, GISWNSGSIGYADSVK, CGRGGGYFDY -> 10 µM (2 of 3 replicates; controls 3 of 9)
* GFTFDDYAMH, GISWNSGSIYYADSVK, PGRGGGYFDY -> 150 µM (1 of 3 replicates; controls 2 of 9)
* GFTFDDYAMH, GISWNSGSIGYADSVK, KGRGGGYRFY -> 79 µM (3 of 3 replicates; controls 6 of 9)
* GFTFDDWAMH, GISWNSGSIGYADSVK, PGRGGGYFYY -> 53 µM (1 of 3 replicates; controls 3 of 9)
* GITFDDYAMH, GISWNSGSIGYADSVK, AGRGGPYFDY -> 200 nM (3 of 3 replicates; controls 3 of 9)
* GFTFDDYAMH, GISWNSGSIGYADSYK, DGRGGGKFDY -> 190 nM (3 of 3 replicates; controls 0 of 9)
* GFTFDDSAIH, GISWNSGSIGYADSVK, WGRGGGYFDY -> 22 µM (3 of 3 replicates; controls 5 of 9)
* GFTLDDHAMH, GISWNSGSIGYADSVK, HGRGGGYFDY -> no signal (0 of 3 replicates; controls 0 of 9)
* GFTFDDYAMH, GIYWNSGSIGYADSNK, CGRGGGYFDY -> 230 µM (1 of 3 replicates; controls 5 of 9)
* GFTFDDYAMH, GISWNSGSIGNADSVK, PGRGGGMFDY -> 5.1 µM (2 of 3 replicates; controls 0 of 9)
* GFTMDDYAMH, GISWNSGSIGYADSVK, MGRGGGYFKY -> 1.1 µM (1 of 3 replicates; controls 1 of 9)
* GFTFDDYAMH, GASWNTGSIGYADSVK, WGRGGGYFDY -> no signal (0 of 3 replicates; controls 0 of 9)
* GFTFDDYAMH, GISWNSGSIGYADSVK, DGRGGGYFMY -> 65 µM (1 of 3 replicates; controls 2 of 9)
* GFTFDDYAMH, GISWNPGSIGYADSDK, FGRGGGYFDY -> 51 µM (1 of 3 replicates; controls 1 of 9)
* GFTFDDYAMH, TISWNSGSIGYADPVK, YGRGGGYFDY -> no signal (0 of 3 replicates; controls 1 of 9)
* GFTFDDYAMH, GISWHSGSIGKADSVK, KGRGGGYFDY -> 10 µM (1 of 3 replicates; controls 1 of 9)
* GFTFDDYAMH, GISSNSGSIGYADSVK, NGRGGVYFDY -> 850 µM (1 of 3 replicates; controls 2 of 9)
* GFTFDDYAMH, GISWNSGSIPYADSVK, AGRGGGYKDY -> no signal (0 of 3 replicates; controls 0 of 9)
* GFTFDDYAMH, GISWNSGSIGYANSVK, WGRGGGVFDY -> 210 nM (3 of 3 replicates; controls 4 of 9)
* AFTFDDYAMH, GISWNSGSIGYADSVK, KGFGGGYFDY -> 230 µM (1 of 3 replicates; controls 3 of 9)
* GFTFDDYAMH, GISWNSGIIGYADSVK, RGRGGGYFDI -> 51 µM (3 of 3 replicates; controls 7 of 9)
* GFTFDDYAMH, GISWNIGSIGYADSVK, RGRNGGYFDY -> 85 µM (2 of 3 replicates; controls 6 of 9)
* GFIFDDYAMH, GISWNSGSIGYADSVK, QGRGGGMFDY -> 18 µM (3 of 3 replicates; controls 5 of 9)
* GFTFDDYAQH, GSSWNSGSIGYADSVK, LGRGGGYFDY -> 49 µM (1 of 3 replicates; controls 4 of 9)
* GFTFDDYAMH, GISWNSGSIGYAQSVK, AGRGGGYFDI -> 130 µM (1 of 3 replicates; controls 1 of 9)
* GFTFDDYAMH, GISWNSGSIGYADSVK, DGRGGGYFDY -> 1.0 mM (2 of 3 replicates; controls 6 of 9)
* GFTFDDYAMH, GISWNSGSIGYIDSCK, MGRGGGYFDY -> no signal (0 of 3 replicates; controls 0 of 9)
* GFTFDDYAYH, GISWNSGSIGYADSVK, YGRGGGYFDI -> 350 µM (1 of 3 replicates; controls 2 of 9)

Parent in this assay: reference entry 72 nM, copy in this library 7.5 nM.